These are literature values, as cited in article PMC12711161 (2025).

The series deals with T1, COX‐2 (Mus musculus, UniProt Q05769).
T1 sequence (Q05769 18-604): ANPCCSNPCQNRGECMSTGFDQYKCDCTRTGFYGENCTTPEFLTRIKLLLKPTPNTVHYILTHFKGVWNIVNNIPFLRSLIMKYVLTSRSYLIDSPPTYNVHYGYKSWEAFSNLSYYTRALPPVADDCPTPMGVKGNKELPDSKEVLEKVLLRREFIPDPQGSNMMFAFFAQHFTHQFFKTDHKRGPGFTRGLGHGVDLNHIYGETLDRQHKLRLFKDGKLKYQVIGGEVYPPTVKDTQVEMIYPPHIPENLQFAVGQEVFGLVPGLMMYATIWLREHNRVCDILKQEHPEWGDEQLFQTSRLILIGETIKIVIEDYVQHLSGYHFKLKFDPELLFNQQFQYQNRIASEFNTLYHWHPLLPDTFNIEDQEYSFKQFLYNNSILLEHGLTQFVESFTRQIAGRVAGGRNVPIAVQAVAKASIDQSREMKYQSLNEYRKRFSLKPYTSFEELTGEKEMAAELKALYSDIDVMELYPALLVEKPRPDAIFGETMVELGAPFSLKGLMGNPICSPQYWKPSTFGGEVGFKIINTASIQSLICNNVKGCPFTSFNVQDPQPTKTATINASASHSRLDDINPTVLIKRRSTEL
The following applies: read-out: COX‐2 IC50; J774 murine macrophage assay; ref [27]; cited from earlier work.

For orientation: IC50 means the midpoint of a concentration-inhibition curve. `Cc1c(CCOCCO)cc(-c2ccc(S(C)(=O)=O)cc2)n1-c1ccc(F)cc1` [Compound 7b]: the IC50 was 4 nM.
